# Reference: article PMC7326497, “Membrane characteristics tune activities of endosomal and autophagic human VPS34 complexes” (eLife, 2020)
# Biological target: T1, human VPS15, subunit of complexes I and II (human)
# T1 construct: VPS15, human; expressed as HsVPS15-3xTEV-ZZ from the plasmid HsVPS34 + HsVPS15-3xTEV-ZZ; A 3xTEV site lies between VPS15 and ZZ; whether the tag was cut off is told only in Ohashi et al., 2016; The printed theoretical masses fit tag-free whole chains (my reckoning); also called HsVPS15; source: Expi293 cells, transfected, co-expressed with the other subunits, purified as a complex (method of …)
# Test: SEC-MALS; purified, co-expressed human complex I at 1 mg/mL; Superose 6 10/300, 0.5 mL/min; measured 370 kDa against 363 kDa theoretical
# Conditions: both partners purified
binder,measurement,value
"human ATG14L, specific subunit of complex I (natural protein, ATG14L, human; see Supplementary file 6; also called HsATG14L; Barkor; source: Expi293 cells, transfected, co-expressed with the other subunits, purified as a complex (method of Ohashi et al., 2016); not shown: ZZ (only in pYO1017)) not shown",stoichiometry N,1
